The values that follow come from PubChem BioAssay AID1381 (University of Pittsburgh Molecular Library Screening Center, 2008).

This is a selection; strong and weak results do not stand in their true shares. Calls of active or inactive are those of the source.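 Rule for the calls: active = plate z-score of nuclear minus cytoplasmic receptor signal below a set negative limit, without overly bright fluorescence or cell loss (cut at about -3.5 in these data, passing the limit was not always enough); inactive = the rest, inconclusive results apart.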

The nature of this test: inhibitors of GR-EGFP nuclear translocation, primary screen, dynein cargo transport inhibitor project, imaging, high-content, 3617.4 mouse cells (AID 1381). Conditions: hits give low values, stimulated with dexamethasone, 1 µM; at 20 µM unless noted.
Consider `O=P1(Nc2ncccn2)COc2ccccc2OC1`, for which the z-score was inactive: -1.52.

Turning to `CN1CCCCC1COC(=O)C1(O)c2ccccc2CCc2ccccc21` (stereo not given), the z-score is inactive: 0.467. Regarding `COc1ccccc1OP(C)(=O)Nc1c(C)cccc1C` (stereo not given), the z-score is inactive: -0.899 [at 50 µM]. The figure for `Nc1cccc([As](=O)(O)c2ccccc2)c1` is inactive: 0.128. The figure for `CP(=O)(Nc1ccc(SC(F)(F)F)cc1)Oc1ccccc1` (stereo not given) is inactive: -0.728; for `CCCOc1ccc(NP(C)(=O)Oc2ccc(Cl)cc2)cc1` (stereo not given) it is inactive: 3.63. Turning to `O=P1(Nc2ccc(Br)cn2)COc2ccccc2OC1`, the z-score was inactive: -1.4.

For the compound `Cc1ccc(OCC(=O)OC2CN3CCC2CC3)cc1` (stereo not given), the z-score was inactive: -0.189 [at 50 µM].

For the compound `O=[As](O)(c1cccs1)c1cccs1`, the z-score was inactive: -0.0476.

Take `Cc1nn(-c2ccccc2)c2c1P(=O)(N1CCOCC1)N(C)C(c1ccccc1)=N2` (stereo not given): the z-score was inactive: -0.152 [at 50 µM]. The figure for `CC1CCC(C(C)C)C(OP(=O)(Nc2ccccn2)c2ccccc2)C1` (stereo not given) is inactive: -1.34. In the case of `COc1cc(C2NCCC3(OCCO3)C2(C)C)cc(OC)c1OC.O=[N+]([O-])c1cc([N+](=O)[O-])c(O)c([N+](=O)[O-])c1` (stereo not given), the z-score was inactive: 1.06.

Consider `O=[N+]([O-])c1cc([N+](=O)[O-])c(Nc2nnnn2CCO)c([N+](=O)[O-])c1`, for which the z-score is inactive: 1.26. Under `CN(C)C1(CNC(=O)c2ccc(S(C)(=O)=O)cc2)CCCCC1` stands inactive: 0.71. The figure for `CCOC(=O)C(CC)C1=NC(C)(C)Cc2ccccc21.O=[N+]([O-])c1cc([N+](=O)[O-])c(O)c([N+](=O)[O-])c1` (stereo not given) is inactive: 0.831; for `O=C(/C=C/c1ccccc1)OC1CN2CCC1CC2` (stereo not given) it is inactive: 0.478.

As for `CC(C)/C=N\N=C(\N)N[N+](=O)[O-]`, the z-score was inactive: -0.391. For the compound `O=[As](O)(c1ccccc1Br)c1ccccc1Br`, the z-score was inactive: -0.199. On to `CC1(CBr)Cn2c(nc3ccccc3c2=O)S1` (stereo not given), for which the z-score is inactive: -1.43 [at 50 µM]. The figure for `Cc1nc2ccc3ccccc3c2s1.O=[N+]([O-])c1cc([N+](=O)[O-])c(O)c([N+](=O)[O-])c1` is inactive: -0.403. Under `O=P1(Nc2ccccn2)COc2ccccc2OC1` stands inactive: -0.401. The figure for `O=[N+]([O-])c1cc([N+](=O)[O-])c(-n2nnc3ccccc32)c([N+](=O)[O-])c1` is active: -4.48; for `CCOP(=O)(Nc1ccc(C)cn1)OCC` it is inactive: -0.396; for `Clc1n[nH]nc1-c1nn[nH][15n]1` it is inactive: -0.258. On to `CC(C)(C)C(=O)NC(Sc1ncccn1)C(Cl)(Cl)Cl` (stereo not given), for which the z-score is inactive: 2.29.
